Only some compounds are listed: those with a hit (about 3.7% of all), similar ones and a draw of the others.
TCR activator: T cell receptor activation | primary human leukocytes, anti-CD3, IL-2 HTRF, 48 h | Potency, µM (highest dose often 9.22 µM), usual class: activators | 330,000 tested, under 10 active | AID 504894
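IL-2 release read by HTRF sandwich (Eu cryptate donor, d2 acceptor, 665 nm emission) after 48 hr exposure of primary human leukocytes to compound together with anti-CD3 beads in the absence of co-stimulatory signals.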
miR-21 reporter: raises the signal of a miR-21 reporter | HeLa miR-21 FLuc reporter, luciferase, 48 h | Potency, µM (doses to about 38.3 µM) | 340,000 tested, under 10 active | AID 2288; active = well fitted rising curve with a large enough effect; inconclusive = small, poorly fitted or top-dose-only effect; inactive = no such curve, though single readings can be large or run the other way;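 also: miR-21 action dims this reporter so a rising signal means less miR-21 action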
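HeLa cells stably expressing CMV-driven firefly luciferase with a downstream miR-21 binding sequence, endogenously expressing miR-21, were treated with titrations (up to about 40uM final) for 48 hours at 37 degree Celsius. Luciferase luminescence was read after lysis.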
Nrf2 activator: activators of Nrf2 (ARE) signaling; 410,000 tested, 0.31% active; Potency, µM (top dose mostly 46.1 µM), actives largely listed as activators; AREc32 ARE-luciferase reporter (MCF7-derived line), luminescence, 24 h; note: nearly all actives have a fitted effect of over 65% in size
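Luminescent ARE reporter assay in AREc32_Fluc cells: overnight plating at 37 deg C, 24 hr compound incubation, Steady-Glo added, 30 min RT before reading.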
ClpP mod: qHTS Assay for Activators of ClpP. ATP-dependent Clp protease proteolytic subunit (Bacillus subtilis (strain 168)), P80244. purified B. subtilis ClpP, FRET peptide cleavage, 20 min. Potency, µM (titrated, usually from 57.5 µM). 340,000 tested, 1.9% active. AID 651965, 2013; active = well fitted falling curve with a large enough effect; inconclusive = small, poorly fitted or top-dose-only effect; inactive = no such curve, though single readings can be large or run the other way; note: the source files actives as falling curves though it sought activators and does not explain the sign; nearly all actives have a fitted effect of over 65% in size
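FRET quenching reversal measured ClpP activation: 10 microg/mL B. subtilis ClpP at pH 8 with the FRET-FV decapeptide, read at 430 nm after 320 nm excitation. The 20-min minus 0-min signal was scaled between DMSO/no-enzyme wells and ADEP (5.8 microM final).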
A549 tox: kills or reduces viability of A549 cells in Nrf2 counter-screen; 390,000 tested, 0.16% active; Potency, µM (highest dose often 46 µM), most hits filed as inhibitors; AID 504648; A549 ARE-Fluc cells, CellTiter-Fluor viability, 18-24 h
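A549 ARE_Fluc cells in 5% FBS OPTI-MEM were exposed to compounds in concentration-response for 18-24 h at 37 deg C. Viability was read by CellTiter-Fluor fluorescence (Ex 405/Em 525) after 30 min, before the luciferase read.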
Nrf2 inh: Nrf2 pathway inhibition; A549 ARE-Fluc reporter, luciferase luminescence, 18-24 h; Potency, µM (series often up to 46 µM), hits mostly inhibitors; 360,000 tested, 2.1% active; note: nearly all actives have a fitted effect of over 60% in size
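Concentration-response testing used A549 ARE_Fluc cells at 5000 cells/well. Following an 18-24 h compound incubation, viability was read by fluorescence (Ex 405/Em 525) and luciferase output by luminescence.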
Numbers stand for hits; . = inactive; ? = inconclusive; / = no result; [ ] = dose if it differs, or a comment. Unless noted, calls come from the whole dose curve; as a rule, active = well fitted curve in the direction sought with a large enough effect; inconclusive = small, poorly fitted or top-dose-only effect, or another doubt; inactive = no such curve, though single readings can be large; an effect the other way counts as inactive or inconclusive.

SMILES | TCR activator | miR-21 reporter | Nrf2 activator | ClpP mod | A549 tox | Nrf2 inh
COc1ccc(OCc2ccc(-c3nc(C#N)c(NCc4cccnc4)o3)o2)cc1 | / | . | . | ? | . | ?
Cc1ccc(CNc2oc(-c3ccc(COc4ccc(Cl)cc4)o3)nc2C#N)cc1 | / | . | . | ? | . | .
N#Cc1nc(-c2ccc(F)cc2)oc1NCc1ccccc1 | . | . | . | . | ? | .
Cc1ccccc1OCc1ccc(-c2nc(C#N)c(NCc3cccnc3)o2)o1 | / | . | . | . | . | 12µM
CC(C)(C)c1ccc(-c2nc(C#N)c(NCc3cccnc3)o2)cc1 | . | . | . | 32µM | . | .
Cc1cccc(C)c1NC(=O)C1c2ccccc2OCC(=O)N1Cc1ccccc1 (stereo unspecified) | / | / | . | . | / | /
Cc1cc(=O)oc2cc(OCC(O)CN3CCN(c4ccccc4)CC3)ccc12 (stereo unspecified) | . | . | . | 32µM | . | .
Cc1cc(=O)oc2cc(OCC(O)CN3CCc4ccccc4C3)ccc12 (stereo unspecified) | . | . | . | ? | . | .
COc1ccccc1N1CCN(CC(O)COc2ccc3c(C)cc(=O)oc3c2)CC1 (stereo unspecified) | . | . | . | 16µM | . | .
COc1ccccc1N1CCN(CC(O)COc2c(OC)cccc2OC)CC1 (stereo unspecified) | . | . | . | . | . | .
Cc1ccc(C(=O)N2CCN(S(=O)(=O)c3sc(C(=O)O)c(C)c3C(=O)O)CC2)s1 | . | / | . | . | . | .
Clc1ccc(CNc2ncnc3onc(-c4ccc(Cl)cc4)c23)cc1 | / | . | . | ? | . | ?
O=C(C[n+]1cccc2ccccc21)c1ccc(F)cc1 | / | / | / | . | / | /
Cc1ccc(NC(=O)c2cc3c(s2)CCC3)cc1S(=O)(=O)N1CCOCC1 | . | . | . | ? | . | 21µM
COc1ccc(NC(=O)c2cc3c(s2)CCC(C)C3)cc1S(=O)(=O)N1CCOCC1 (stereo unspecified) | . | . | .[9.22 µM] | . | . | 18µM
Cc1ccc(NC(=O)C(C)OC(=O)c2nc(Cl)ccc2Cl)cc1S(=O)(=O)N1CCOCC1 (stereo unspecified) | . | / | . | . | . | .
CCc1sc(C(=O)Nc2ccc(OC)c(S(=O)(=O)N3CCOCC3)c2)cc1C | . | / | . | . | . | ?
Cc1ccc(NC(=O)C(C)OC(=O)c2ccc(Cl)nc2)cc1S(=O)(=O)N1CCOCC1 (stereo unspecified) | . | / | . | 28µM | . | .
O=S(=O)(c1ccc(C(F)(F)F)cc1)N1CCN(CCc2ccccc2)CC1 | . | . | . | / | . | .
COc1ccc(N2CCN(C(=O)CNC(=O)Cn3cnc4sc(C)c(C)c4c3=O)CC2)cc1 | . | . | . | . | . | .
COC(=O)C[C@@H]1CC[C@H](NS(=O)(=O)c2cccc(F)c2)[C@@H](CO)O1 | / | / | / | . | / | /
CCOC(=O)c1c(NC(=O)COc2ccc(OC)cc2)sc(C(=O)N(CC)CC)c1C | / | ? | . | . | . | 23µM
CCOC(=O)c1c(NC(=O)COC(=O)c2cccnc2OCC)sc(C(=O)N(CC)CC)c1C | . | / | . | / | . | 15µM
CCOC(=O)Nc1sc(C(=O)N(CC)CC)c(C)c1C(=O)OCC | . | . | . | . | . | .
Cc1ccccc1CN1C(=O)CN(S(C)(=O)=O)CC1(C)C(=O)NC(C)C (stereo unspecified) | / | / | / | . | / | /
SMILES | TCR activator | miR-21 reporter | Nrf2 activator | ClpP mod | A549 tox | Nrf2 inh
COc1ccc(CCNC(=O)Cn2c(-c3ccc(F)cc3)cc(C(C)=O)c2C)cc1OC | / | . | . | . | . | /
c1coc(CNc2nc(-c3cccs3)nc3ccccc23)c1 | / | / | / | / | . | ?
CC(C)Cc1ccc(C(C)C(=O)Nc2cccnc2)cc1 (stereo unspecified) | . | . | . | / | . | 6.5µM
COc1ccc(-n2c(=S)[nH]c3cc(C(=O)Nc4ccc(F)cc4)ccc3c2=O)c(OC)c1 | . | . | . | / | . | 21µM
COc1ccc(-n2c(=S)[nH]c3cc(C(=O)NCc4ccc(F)cc4)ccc3c2=O)c(OC)c1 | . | . | . | . | . | 16µM
COc1ccc(NC(=O)c2ccc3c(=O)n(-c4ccc(OC)cc4OC)c(=S)[nH]c3c2)cc1 | . | . | . | . | . | .
COc1ccc(C(=O)OCc2cc(=O)n3nc(-c4cccs4)sc3n2)cc1 | / | . | . | . | . | .
Cc1ccc(-c2nc3c(Cl)cc(C(F)(F)F)cn3c2Cc2ccsc2)cc1 | / | / | . | . | / | /
Cc1cc2nc(SCCOC(=O)Nc3ccccc3)nc(C)c2cc1C | . | . | . | . | . | 21µM
Cc1cc2nc(SCCOC(=O)Nc3cccc(Cl)c3)nc(C)c2cc1C | . | . | . | / | . | ?
CCOc1ccc(NC(=O)CSc2nnc(C3CC3)n2C2CC2)cc1 | . | / | . | . | . | .
O=C(/C=C/c1ccco1)NCCc1ccc(F)cc1 | . | . | 14µM | / | . | ?
COc1ccccc1NC(=O)c1nc(S(=O)(=O)Cc2ccccc2)ncc1Cl | . | ? | ? | / | . | ?
CCOC(=O)c1ccc(NC(=O)c2nc(S(=O)(=O)Cc3ccccc3)ncc2Cl)cc1 | . | ? | 3.2µM | . | ? | ?
COc1ccc(OC)c(NC(=O)c2nc(S(=O)(=O)Cc3ccc(F)cc3)ncc2Cl)c1 | / | 12µM | . | . | ? | ?
Cc1ccc(CNC(=O)c2nc(S(=O)(=O)Cc3ccc(C)cc3)ncc2Cl)cc1 | / | . | . | . | . | 12µM
O=C(Cc1nnc(-c2nc3ccccc3[nH]2)o1)Nc1cc(C(F)(F)F)ccc1Cl | / | / | / | / | . | .
Cc1ccc(S(=O)(=O)Nc2ccccc2/C=N/c2nc3ccccc3n2C)cc1 | . | ? | . | . | . | .
CC(C)Oc1ccc2ccccc2c1CNC[C@H]1O[C@@H](n2ccc(N)nc2=O)[C@H](O)[C@@H]1O | / | / | . | . | / | /
Cc1ccccc1OCC(=O)N1CCC2(CC1)CC(=O)c1ccccc1O2 | . | / | . | 28µM | . | .
O=C1CC2(CCN(C(=O)COc3ccccc3)CC2)Oc2ccccc21 | . | / | . | / | . | .
CC(Oc1ccccc1)C(=O)N1CCC2(CC1)CC(=O)c1ccccc1O2 (stereo unspecified) | . | / | . | 25µM | . | .
O=C(O)c1ccc(S(=O)(=O)N2CCC3(CC2)CC(=O)c2ccccc2O3)cc1 | . | / | . | 32µM | . | .
COC(=O)C1=C(C(=O)OC)[C@]2([C@H]3CCCCN[C@@H](Cc4ccccc4)C(=O)N3Cc3ccccc3)C=C[C@H]1O2 | . | / | . | . | . | 23µM
Cc1cc(C)c(NC(=O)c2ccc(CN3CCc4ccccc4C3)cc2)c(C)c1 | . | . | . | . | ? | 23µM
CCOC(=O)c1ccc(NC(=O)c2ccc(CN3CCOCC3)cc2)cc1 | . | . | . | . | ? | 5.2µM

Screening results deposited in PubChem BioAssay by National Center for Advancing Translational Sciences (NCATS).
